This is an account of results in PubChem BioAssay AID1347087 (National Center for Advancing Translational Sciences (NCATS), 2019).

Only a part is listed here, and it is no random draw. Results filed as inconclusive are left out. Calls of active or inactive are those of the source. The call rests on the fitted dose curve.

The test can be described thus: qHTS for Inhibitors of the Functional Ribonucleoprotein Complex (vRNP) of Lassa (LASV) Arenavirus: LASV Confirmatory Screen - GLuc reporter signal. Particulars: LASV minigenome vRNP, Gaussia luciferase reporter. Background: Quantitative high-throughput screening tests each substance at several concentrations.

Turning to `CCC(=O)N(c1ccccc1)C1(COC)CCN(CCc2cccs2)CC1`, the Potency is active: 44.4 µM.
